In paper PMC9929232, “On-demand male contraception via acute inhibition of soluble adenylyl cyclase” (Nature Communications, 2023):

Tested on: epididymal mouse sperm
Test: Tyrosine phosphorylation (pY) Western blot of sperm from injected mice
Conditions: Fig. S1d; 1:25 capacitating media

Cc1c(Cc2ccccc2)c(-c2cc(Cl)nc(N)n2)nn1C [TDI-10229, reference compound]
normalized pY: 1.59
